Literature values, collected in article PMC3594138 (Bioorganic & medicinal chemistry letters, 2013).

Test system: isolated rat heart
Details: uptake-2 blocked pharmacologically; cited from earlier work

[^11C]-(−)-m-hydroxyephedrine [[^11C]HED]
Major Clearance T1/2: 1.1 ± 0.3 h
